Columns and labels:
[1] = system: AB1 (mouse malignant mesothelioma) cells; assay: MTT cytotoxicity, AB1 cells, 72 h; conditions: read-out: IC50 AB1, 72 h exposure
[2] = system: MRC-5 (human embryonic lung fibroblast) cells; assay: MTT cytotoxicity, MRC-5 cells, 72 h; type: cell-based; conditions: read-out: IC50 MRC-5, 72 h exposure
[3] = system: JU77 (human malignant mesothelioma) cells; assay: MTT cytotoxicity, JU77 cells, 72 h; conditions: read-out: IC50 JU77, 72 h exposure
[4] = NO release, Griess assay (phosphate buffer pH 7.4 with L-cysteine); type: physicochemical; conditions: for NO Released (%) 1 h: 1 h incubation, expressed as % NO2− (μmol/μmol), Griess assay, physiological conditions, furoxan 100 µM; for NO Released (%) 24 h: 24 h incubation; for NO Released (%) 24 h / NO Released (%) 48 h: % NO2− (μmol/μmol); for NO Released (%) 48 h: 48 h incubation; for total amount of released NO: with longer incubation periods
AB1 cells [5] = assay: ROS detection, CM-H2DCFDA, live-cell confocal microscopy; conditions: 100 μM, 2 h
AB1 cells [6] = assay: NO release in vitro in AB1 cells (Griess reagent); type: cell-based, mouse; conditions: 25 μM, 24 h, relative to untreated cells
HEK293 cells = conditions: read-out: IC50 HEK293; 72 h; cited from earlier work
AB1 and JU77 cell lines = assay: Cytotoxicity in both MPM cell lines (AB1 and JU77); conditions: read-out: IC50 (cytotoxicity) in both MPM cell lines; AB1 and JU77, 72 h, range over cell lines/compounds
[7] = system: A549 non-small-cell lung cancer line; conditions: read-out: IC50 A549; previously reported; cited from earlier work
[8] = system: A549, HCT116, HeLa, MCF7, and RD cell lines; conditions: cited from earlier work

Structure (SMILES) | IC50 [1] [µM] | IC50 [2] [µM] | IC50 [3] [µM] | NO Released (%) 1 h [4] [%] | NO Released (%) 24 h [4] [%] | NO Released (%) 48 h [4] [%] | NO-donor ranking (in words) ([4]; among all tested compounds) | total amount of released NO [4] | ROS generation (CM-H2DCFDA fluorescence, in words) (AB1 cells [5]) | intracellular NO release (in words) (AB1 cells [6]) | IC50 (HEK293 cells) [µM] | IC50 (AB1 and JU77 cell lines) [µM] | IC50 [7] [µM] | cytotoxicity (in words) ([8]; earlier work) | IC50 ([8]; range over A549, HCT116, HeLa, MCF7, RD, 72 h) [µM]
COCc1nc(-c2no[n+]([O-])c2-c2noc(COC)n2)no1 | 15.6 | 52.6 | 19.5 | 75 ± 7 | 112± 1 | 125 ± 1 | most effective NO donors | exceeded 100% |  |  |  |  |  |  | 
NC(=NO)c1no[n+]([O-])c1C(N)=NO |  |  |  | 75 ± 9 | 81 ± 5 | 82 ± 7 |  |  |  |  |  |  |  |  | 
[O-][n+]1onc(-c2noc(-c3ccco3)n2)c1-c1noc(-c2ccco2)n1 | 14.2 | 45.4 | 5 | 52 ± 3 | 70 ± 5 | 73 ± 8 |  |  | pronounced increase in fluorescence | high |  |  |  |  | 
[O-][n+]1onc(-c2ncon2)c1-c1ncon1 | 11.7 | 16.4 | 8.6 | 73 ± 6 | 131 ± 1 | 144 ± 1 |  | exceeded 100% |  |  | 20.4 | 8.6 to 11.7 | 8.8 | high cytotoxicity | 2.37 to 8.75
